Patent publication US11208497B2, “Antibodies comprising C-terminal light chain polypeptide extensions and conjugates and methods of use thereof” (ZYMEWORKS INC., priority 2013, dated 2021)

Assay: Native (non-denaturing) size exclusion chromatography of antibodies
Type: physicochemical
Details: non-denaturing SEC, unconjugated antibody

trastuzumab: parental anti-HER2 antibody (4D5 humanized variant 8), control
protein sample in the monomeric state: 99.36%
